Positions count from the first letter of the chain named.
B1: chimeric protein of SEQ ID NO: 9 (AP-GSS-His6-OAZ, linker, SPM of FrpA) (other)
chain: MGSGLNDIFEAQKIEWHEGSSHHHHHHFYSDDRLNVTEELTSNDKTRILNVQSRLTDAKRINWRTVLSGGSLYIEIPGGALPEGSKDSFAVLLEFAEEQLRADHVFIAFHKNREDRAALLRTFSFLGFEIVRPGHPLVPKRPDACFMAYTFEGVYDPLALDLDGDGIETVAAKGFAGALFDHRNQGIRTATGWVSADDGLLVRDLNGNGIIDNGAELFGDNTKLADGSFAKHGYAALAELDSNGDNIINAADAAFQTLRVWQDLNQDGISQANELRTLEELGIQSLDLAYKDVNKNLGNGNTLAQQGSYTKTDGTTAKMGDLLLAADNLHSRFKDKVELTAEQAKAANLAGIGRLRDLREAAALSGDLANMLKAYSAAETKEAQLALLDNLIHKWAETD
B2: chimeric protein of SEQ ID NO: 10 (AP-GSS-His6-OAZ, linker, SPM of FrpC) (other)
chain: B1 chain with A172T, A178S, R183T, Q185N
B3:  (other)
chain: MGSGLNDIFEAQKIEWHEGSSHHHHHHFYSDDRLNVTEELTSNDKTRILNVQSRLTDAKRINWRTVLSGGSLYIEIPGGALPEGSKDSFAVLLEFAEEQLRADHVFIAFHKNREDRAALLRTFSFLGFEIVRPGHPLVPKRPDACFMAYTFEGIVDPLALDLDGNGIQTTATAGFSGSLFDHNKDGIRTATGWVASGDGLLVRDLNGNGIIDNGGELFGENTLLADGTLAQHGYAALAELDSNADGVVDANDAAFATLRVWQDKNQDGISQADELHTLADLGIQSLNTAYEDVNQDLGNGNSIAQLGSYTKTDGSTAEMADLLFHNDHLYSRFAERIELTAEQSRAANLSGIGRVRDLREAAALFGDLSATLQSYSQADTKQVQMALLDKLVQKWAETD
B4:  (other)
chain: MGSGLNDIFEAQKIEWHEGSSHHHHHHFYSDDRLNVTEELTSNDKTRILNVQSRLTDAKRINWRTVLSGGSLYIEIPGGALPEGSKDSFAVLLEFAEEQLRADHVFIAFHKNREDRAALLRTFSFLGFEIVRPGHPLVPKRPDACFMAYTFEGGYDPLILDLDGKGIQTLAPSSISARFDHNADGIATATGWAAAGNGILALDLDNNGKIDSGKEIFGNHSVLSNGTAAAHGYAALAELDSNADGIISALDDTFSSLKVWQDINQDGISQSNELFTLQALGIQSLNLEHQENSKDLGNGNRLTHIGSYTKTDGTTGEMGDVEFASNSLYSRYTDTIELTPEQLQAPNLHGTGRLRDLREAAALSTGLAEILKQYSAAQTKEEQTALLSELVAKWGATD

Each binder was assayed against T1, Ornithine Decarboxylase (ODC), His6-ODC-Ctag (human, UniProt P11926 1-461) (assay: calcium-induced covalent conjugation, 10 µM each overnight at 37° C., SDS-PAGE).
T1 construct: also called ODC1; wild type ODC; not shown: C-tag
T1 sequence: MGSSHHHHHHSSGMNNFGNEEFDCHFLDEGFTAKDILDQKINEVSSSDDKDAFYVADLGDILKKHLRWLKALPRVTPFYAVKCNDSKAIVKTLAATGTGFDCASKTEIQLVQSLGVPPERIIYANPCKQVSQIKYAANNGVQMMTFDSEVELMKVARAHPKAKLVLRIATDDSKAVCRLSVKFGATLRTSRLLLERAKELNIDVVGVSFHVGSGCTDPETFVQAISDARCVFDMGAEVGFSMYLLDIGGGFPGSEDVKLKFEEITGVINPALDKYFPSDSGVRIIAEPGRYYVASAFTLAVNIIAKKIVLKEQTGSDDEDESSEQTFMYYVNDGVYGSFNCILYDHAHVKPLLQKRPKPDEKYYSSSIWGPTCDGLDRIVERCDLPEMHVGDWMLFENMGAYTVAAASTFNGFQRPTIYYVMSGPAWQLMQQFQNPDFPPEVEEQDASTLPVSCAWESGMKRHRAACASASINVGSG

| Binder | binding result |
| --- | --- |
| B1 | binds |
| B2 | binds |
| B3 | binds |
| B4 | binds |
